Assay: Microplate spectrophotometric method (DCYA assay), fluorescence end-point
Settings: RI = reactivity index; 2 equiv. electrophile, pH 10 buffer

With O=[N+]([O-])c1ccc(Cl)c([N+](=O)[O-])c1 [1-Chloro-2,4-dinitrobenzene] the “DCYA 100-RI” value was 131.7.
